According to BindingDB's records for doi:10.3109/14756366.2011.643304 (Umeå University, 2013):
pIC50: −log10 of the molar value.

Amino acid sequences for entries named in this document (tags omitted). Residues count along the entry.
UniProt P97612, 30-579: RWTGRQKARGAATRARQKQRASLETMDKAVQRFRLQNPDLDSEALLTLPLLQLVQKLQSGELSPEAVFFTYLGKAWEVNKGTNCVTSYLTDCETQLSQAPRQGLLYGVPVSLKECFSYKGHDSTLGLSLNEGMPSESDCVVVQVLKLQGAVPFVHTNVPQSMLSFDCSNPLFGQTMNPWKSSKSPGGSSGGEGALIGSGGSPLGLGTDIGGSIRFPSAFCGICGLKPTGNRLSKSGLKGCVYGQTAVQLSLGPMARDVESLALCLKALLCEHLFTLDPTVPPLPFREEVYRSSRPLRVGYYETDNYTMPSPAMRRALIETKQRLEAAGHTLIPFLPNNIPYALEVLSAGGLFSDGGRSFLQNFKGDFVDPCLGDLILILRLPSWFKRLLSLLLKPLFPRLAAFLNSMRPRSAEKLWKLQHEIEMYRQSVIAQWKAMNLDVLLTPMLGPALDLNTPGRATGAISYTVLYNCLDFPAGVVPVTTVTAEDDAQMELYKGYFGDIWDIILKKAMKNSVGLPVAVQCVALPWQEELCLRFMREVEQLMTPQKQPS

Target: T1, Fatty-acid amide hydrolase 1 [30-579] (Rattus norvegicus, UniProt P97612)
T1 construct: 30-579
Assay: FAAH Assay
Details: pH 7; 4 °C

pIC50: 5.44
Compound: Cc1cccnc1NC(=O)CNC(=O)C(C)c1ccc(CC(C)C)cc1 (stereo unspecified) [ibu-am14 (9)]
